Cyclic peptide permeability, from CycPeptMPDB

PAMPA is the parallel artificial membrane permeability assay, which has no cells and reads passive diffusion. P is given in units of 10^-6 cm/s (from log10 values with two decimals); larger means faster passage.

CC(=O)N1CCC[C@H]1C(=O)N[C@@H]1C(=O)N(C)[C@H](CC(C)C)C(=O)N[C@H](CC(C)C)C(=O)N[C@@H](CC(C)C)C(=O)N(C)[C@H](CC(C)C)C(=O)N[C@@H](C)C(=O)N[C@@H](CC(C)C)C(=O)N2CCC[C@@H]2C(=O)O[C@@H]1C has PAMPA 0.79 × 10^-6 cm/s. CC(=O)N1CCC[C@H]1C(=O)N(C)[C@@H](CC(C)C)C(=O)N[C@@H]1C(=O)N[C@H](CC(C)C)C(=O)N(C)[C@@H](CC(C)C)C(=O)N(C)[C@@H](CC(C)C)C(=O)N[C@@H](C)C(=O)N[C@@H](CC(C)C)C(=O)N2CCC[C@@H]2C(=O)O[C@@H]1C has PAMPA 6 × 10^-6 cm/s. CC(=O)N1CCC[C@@H]1C(=O)N(C)[C@@H](CC(C)C)C(=O)N[C@@H]1C(=O)N[C@H](CC(C)C)C(=O)N(C)[C@H](CC(C)C)C(=O)N[C@H](CC(C)C)C(=O)N(C)[C@H](C)C(=O)N[C@H](CC(C)C)C(=O)N2CCC[C@H]2C(=O)O[C@@H]1C is reported with PAMPA 3.4 × 10^-6 cm/s. For CC(=O)N1CCC[C@H]1C(=O)N[C@@H]1C(=O)N[C@H](CC(C)C)C(=O)N(C)[C@@H](CC(C)C)C(=O)N(C)[C@@H](CC(C)C)C(=O)N[C@@H](CC(C)C)C(=O)N(C)[C@@H](C)C(=O)N[C@@H](CC(C)C)C(=O)N2CCC[C@@H]2C(=O)O[C@@H]1C the data give PAMPA 11 × 10^-6 cm/s. Listed for CC(=O)N1CCC[C@@H]1C(=O)N(C)[C@@H](CC(C)C)C(=O)N[C@@H]1C(=O)N[C@@H](CC(C)C)C(=O)N[C@H](CC(C)C)C(=O)N[C@H](CC(C)C)C(=O)N[C@@H](C)C(=O)N[C@@H](CC(C)C)C(=O)N2CCC[C@@H]2C(=O)O[C@@H]1C: PAMPA 0.098 × 10^-6 cm/s. CC(=O)N1CCC[C@@H]1C(=O)N(C)[C@@H](CC(C)C)C(=O)N[C@@H]1C(=O)N(C)[C@H](CC(C)C)C(=O)N[C@@H](CC(C)C)C(=O)N[C@H](CC(C)C)C(=O)N[C@@H](C)C(=O)N[C@H](CC(C)C)C(=O)N2CCC[C@@H]2C(=O)O[C@@H]1C is reported with PAMPA 0.49 × 10^-6 cm/s.

CC(=O)N1CCC[C@@H]1C(=O)N(C)[C@@H](CC(C)C)C(=O)N[C@@H]1C(=O)N[C@H](CC(C)C)C(=O)N(C)[C@@H](CC(C)C)C(=O)N[C@H](CC(C)C)C(=O)N(C)[C@H](C)C(=O)N[C@@H](CC(C)C)C(=O)N2CCC[C@@H]2C(=O)O[C@@H]1C is reported with PAMPA 6.8 × 10^-6 cm/s. CC(=O)N1CCC[C@@H]1C(=O)N(C)[C@H](CC(C)C)C(=O)N[C@@H]1C(=O)N[C@H](CC(C)C)C(=O)N[C@H](CC(C)C)C(=O)N(C)[C@@H](CC(C)C)C(=O)N(C)[C@@H](C)C(=O)N[C@@H](CC(C)C)C(=O)N2CCC[C@H]2C(=O)O[C@@H]1C is reported with PAMPA 3.3 × 10^-6 cm/s. CC(=O)N1CCC[C@H]1C(=O)N(C)[C@H](CC(C)C)C(=O)N[C@@H]1C(=O)N(C)[C@H](CC(C)C)C(=O)N[C@H](CC(C)C)C(=O)N(C)[C@@H](CC(C)C)C(=O)N(C)[C@H](C)C(=O)N[C@H](CC(C)C)C(=O)N2CCC[C@@H]2C(=O)O[C@@H]1C is reported with PAMPA 6.3 × 10^-6 cm/s. For CC(=O)N1CCC[C@@H]1C(=O)N(C)[C@H](CC(C)C)C(=O)N[C@@H]1C(=O)N(C)[C@H](CC(C)C)C(=O)N[C@H](CC(C)C)C(=O)N(C)[C@@H](CC(C)C)C(=O)N(C)[C@H](C)C(=O)N[C@H](CC(C)C)C(=O)N2CCC[C@@H]2C(=O)O[C@@H]1C the data give PAMPA 3 × 10^-6 cm/s. For CC(=O)N1CCC[C@H]1C(=O)N(C)[C@@H](CC(C)C)C(=O)N[C@@H]1C(=O)N[C@@H](CC(C)C)C(=O)N(C)[C@H](CC(C)C)C(=O)N(C)[C@H](CC(C)C)C(=O)N(C)[C@H](C)C(=O)N[C@H](CC(C)C)C(=O)N2CCC[C@@H]2C(=O)O[C@@H]1C the data give PAMPA 0.74 × 10^-6 cm/s. The entry for CC(=O)N1CCC[C@@H]1C(=O)N(C)[C@@H](CC(C)C)C(=O)N[C@@H]1C(=O)N[C@H](CC(C)C)C(=O)N(C)[C@H](CC(C)C)C(=O)N[C@@H](CC(C)C)C(=O)N[C@@H](C)C(=O)N[C@@H](CC(C)C)C(=O)N2CCC[C@@H]2C(=O)O[C@@H]1C lists PAMPA 1.2 × 10^-6 cm/s.

CC(=O)N1CCC[C@H]1C(=O)N(C)[C@H](CC(C)C)C(=O)N[C@@H]1C(=O)N[C@@H](CC(C)C)C(=O)N[C@H](CC(C)C)C(=O)N(C)[C@H](CC(C)C)C(=O)N[C@H](C)C(=O)N[C@@H](CC(C)C)C(=O)N2CCC[C@H]2C(=O)O[C@@H]1C is reported with PAMPA 0.37 × 10^-6 cm/s. CC(=O)N1CCC[C@@H]1C(=O)N(C)[C@@H](CC(C)C)C(=O)N[C@@H]1C(=O)N[C@@H](CC(C)C)C(=O)N[C@@H](CC(C)C)C(=O)N[C@@H](CC(C)C)C(=O)N[C@@H](C)C(=O)N[C@H](CC(C)C)C(=O)N2CCC[C@H]2C(=O)O[C@@H]1C has PAMPA 0.14 × 10^-6 cm/s. CC(=O)N1CCC[C@H]1C(=O)N[C@@H]1C(=O)N(C)[C@H](CC(C)C)C(=O)N(C)[C@@H](CC(C)C)C(=O)N(C)[C@H](CC(C)C)C(=O)N[C@@H](CC(C)C)C(=O)N(C)[C@@H](C)C(=O)N[C@@H](CC(C)C)C(=O)N2CCC[C@@H]2C(=O)O[C@@H]1C is reported with PAMPA 12 × 10^-6 cm/s. For CC(=O)N1CCC[C@@H]1C(=O)N(C)[C@@H](CC(C)C)C(=O)N[C@@H]1C(=O)N[C@@H](CC(C)C)C(=O)N(C)[C@@H](CC(C)C)C(=O)N(C)[C@@H](CC(C)C)C(=O)N(C)[C@@H](C)C(=O)N[C@@H](CC(C)C)C(=O)N2CCC[C@H]2C(=O)O[C@@H]1C the data give PAMPA 4.5 × 10^-6 cm/s. CC(=O)N1CCC[C@H]1C(=O)N(C)[C@@H](CC(C)C)C(=O)N[C@@H]1C(=O)N(C)[C@@H](CC(C)C)C(=O)N[C@@H](CC(C)C)C(=O)N(C)[C@@H](CC(C)C)C(=O)N(C)[C@@H](C)C(=O)N[C@H](CC(C)C)C(=O)N2CCC[C@@H]2C(=O)O[C@@H]1C is reported with PAMPA 0.5 × 10^-6 cm/s.

The first 2 entries again:

Listed for CC(=O)N1CCC[C@H]1C(=O)N[C@@H]1C(=O)N(C)[C@H](CC(C)C)C(=O)N[C@H](CC(C)C)C(=O)N[C@@H](CC(C)C)C(=O)N(C)[C@H](CC(C)C)C(=O)N[C@@H](C)C(=O)N[C@@H](CC(C)C)C(=O)N2CCC[C@@H]2C(=O)O[C@@H]1C: PAMPA 0.79 × 10^-6 cm/s.
Listed for CC(=O)N1CCC[C@H]1C(=O)N(C)[C@@H](CC(C)C)C(=O)N[C@@H]1C(=O)N[C@H](CC(C)C)C(=O)N(C)[C@@H](CC(C)C)C(=O)N(C)[C@@H](CC(C)C)C(=O)N[C@@H](C)C(=O)N[C@@H](CC(C)C)C(=O)N2CCC[C@@H]2C(=O)O[C@@H]1C: PAMPA 6 × 10^-6 cm/s.

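The data file gives no further conditions (lipid, pH, time, direction or concentration), and values from different papers need not be comparable. The list need not hold all peptides of the study. Entries at the database's floor value (log10 P of -10) are not listed.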

Values of Kelly et al. 2021, doi:10.1021/jacs.0c06115, as listed in CycPeptMPDB.